{"source": "paper PMC3475795", "biological_target": "V5 epitope-tagged wild-type epidermal growth factor receptor (EGFR)", "test": "proximity ligation"}
{"substance": "DNA-PKcs of human cell lines (a stretch of the chain, chain not printed) (enzyme)", "values": [{"measurement": "fold IR-induced increase in PLA associations (HBEC)", "value": 200, "unit": "fold"}]}
